Assay results reported in ChEMBL document CHEMBL5523703, “Modulators for palmitoylation of proteins and small molecules” (Eur J Med Chem, 2024).

Molecular target: T1, Carnitine O-palmitoyltransferase 1, liver isoform (Homo sapiens, UniProt P50416)
T1 sequence (P50416 whole entry): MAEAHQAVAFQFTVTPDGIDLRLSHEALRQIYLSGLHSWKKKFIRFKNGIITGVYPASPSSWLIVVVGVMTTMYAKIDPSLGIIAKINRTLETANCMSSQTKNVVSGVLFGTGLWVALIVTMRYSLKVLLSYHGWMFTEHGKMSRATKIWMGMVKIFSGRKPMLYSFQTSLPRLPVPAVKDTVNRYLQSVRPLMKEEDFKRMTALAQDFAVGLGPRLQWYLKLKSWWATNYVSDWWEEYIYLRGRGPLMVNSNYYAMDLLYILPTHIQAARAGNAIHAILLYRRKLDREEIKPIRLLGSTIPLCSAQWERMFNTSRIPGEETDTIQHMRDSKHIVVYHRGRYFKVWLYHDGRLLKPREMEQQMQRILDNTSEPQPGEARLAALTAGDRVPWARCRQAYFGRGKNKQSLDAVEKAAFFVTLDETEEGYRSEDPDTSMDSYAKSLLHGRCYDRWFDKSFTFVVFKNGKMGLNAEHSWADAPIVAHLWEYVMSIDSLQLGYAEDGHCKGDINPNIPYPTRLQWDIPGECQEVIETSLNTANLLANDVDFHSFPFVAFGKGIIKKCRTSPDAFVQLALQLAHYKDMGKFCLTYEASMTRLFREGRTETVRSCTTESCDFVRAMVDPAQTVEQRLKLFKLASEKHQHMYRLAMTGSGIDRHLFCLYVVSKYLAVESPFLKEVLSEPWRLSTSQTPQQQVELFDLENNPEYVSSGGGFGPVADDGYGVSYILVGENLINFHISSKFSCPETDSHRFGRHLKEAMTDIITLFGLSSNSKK
Experiment: Inhibition of CPT1 (unknown origin)

- IC50: 228 µM
Structure (SMILES): CCCCc1oc2ccccc2c1C(=O)c1cc(I)c(OCCN(CC)CC)c(I)c1 [AMIODARONE]
